This assay concerns Helicobacter pylori SS1 (mouse colonizing strain). The assay can be described thus: Anti-H. pylori in vitro efficacy test, MIC and MBC by microdilution (CLSI). Conditions: unit not given in table (method uses μg/mL). It counts as cell-based. The method, then:
Helicobacter pylori SS1 (mouse colonizing strain): A strain known as Sydney strain. The strain is CagA-positive and VacA-positive and has been confirmed to infect and colonize in C57BL/6 mice. The strain is used in animal testing. An antibiotic susceptibility testing was performed using the microdilution method according to the CLSI guideline. […] The bacteria were inoculated into wells containing only medium without antibiotics to prepare the positive control group, and the wells containing only medium without antibiotics or inoculated bacteria were used as the negative control group. The concentration range of the test substances, zastaprazan (JP-1366) and fexuprazan, was determined through preliminary experiments. […] The lowest concentration at which no bacterial growth was observed was determined as the MIC. […] The lowest concentration at which no bacteria growth occurred was determined as the MBC. […] All tests were performed in duplicate, and the results were determined by conducting the experiments in triplicate.
(In general: Dilution methods test growth across graded concentrations, often in twofold steps.)

For `CC1(C)S[C@@H]2[C@H](NC(=O)[C@H](N)c3ccc(O)cc3)C(=O)N2[C@H]1C(=O)O` [Amoxicillin], the MIC is given as 0.125~0.25.
